From US20250319032A1, “PHARMACEUTICAL COMPOSITIONS OF RIBOCICLIB” (Novartis AG, priority 2024, published 2025)

Test: Validation of the HPLC-HRMS method for N-nitroso-ribociclib (precision, accuracy, linearity, LOQ, stability of standard and sample solutions)
Experimental: The method was validated in the range 0.0625 ppm to 12.5 ppm N-nitroso-ribociclib (NRR) with regard to ribociclib free base. For the purpose of this validation only, the 100% target limit was set at 3.75 ppm (1500 ng NRR/400 mg ribociclib free base).
Six replicates of the “Sample solution” were prepared according to the procedure described above and tested on the same day. The results are expressed as ppm of NNR with regard to ribociclib free base (μg NNR/g ribociclib free base)
Two series of six replicates of the “Sample solutions” were prepared according to the procedure described above and tested by two different analysts, on two different days, using different LC/MS systems and different columns. The results are expressed as ppm of NNR with regard to ribociclib free base (μg NNR/g ribociclib free base)
Three replicates of calibration standard solutions L1 (c=0.5 ng/ml) and L6 (c=100 ng/ml) were prepared according to the procedure described above. Solutions were stored in the dark at room temperature (autosampler (AS) vials). After a period of time, the solutions were reanalyzed. The stability of standard solutions is evaluated by determining the relative difference between the responses […] The results are expressed as concentration in ng/ml, determined from calibration curve in each sequence (time point).
Three replicates of Sample solution were prepared according to AP. The replicates were analysed at t=0 h and after app. […] The results are expressed as ppm of NNR wrt ribociclib free base. […]
In addition, FCT samples stored in flasks on the bench were filtered at defined time point and analysed. […]
Sample solutions were prepare according to the procedure described above using 10 mL, 25 mL and 50 mL flasks, three replicates for each volume. […] The results are expressed as ppm of NNR with regard to ribociclib free base (μg NNR/g ribociclib free base) […]
Amount of NNR present in the unspiked sample was subtracted (see above) and RSD of corrected amounts calculated.

NNR in sample solution, Average (ppm) (0 h, AS at room temperature) | NNR in sample solution, single replicate (24 h, AS at room temperature) [ppm] | NNR (ppm), Intraday precision, single replicate (sample solution, replicates R1-R6, wrt ribociclib free base) [ppm] | Compound
0.239 | 0.227 | – | CN(C)C(=O)c1cc2cnc(Nc3ccc(N4CCNCC4)cn3)nc2n1C1CCCC1.O=C(O)CCC(=O)O [Ribociclib succinate drug substance]
– | – | 0.239 | CN(C)C(=O)c1cc2cnc(Nc3ccc(N4CCNCC4)cn3)nc2n1C1CCCC1.O=C(O)CCC(=O)O [ribociclib succinate drug substance]
